According to paper PMC7096397, “Improving the drug-likeness of inspiring natural products - evaluation of the antiparasitic activity against Trypanosoma cruzi through semi-synthetic and simplified analogues of licarin A” (Scientific Reports, 2020):

Key:
[1] = PAMPA intestinal model (GIT); type: in vitro ADME
Experimental: Intestinal permeability of tested compounds was estimated applying the PAMPA model previously developed and validated. Briefly, stock solutions were prepared in dimethyl sulfoxide (DMSO) at the concentrations of 10 mM and then diluted with Tris buffer to give the final concentration donor solution at 300 µM and 5% DMSO. The assay procedure was initiated by filling each well of the microtiter plate (MultiScreen, catalogue no. MATRNPS50, Millipore Corporation, Bedford, MA, USA) with 300 μL of each donor drug solution. Carefully, and avoiding the pipette tip contact with the filter, the hydrophobic filter (0.45 μm) of each acceptor well of the 96-well microfilter plate (MultiScreen-IP, catalogue no. MAIPNTR10, Millipore Corporation, Bedford, MA, USA) was adsorbed with 6 μL of the artificial lipid solution which was composed of 2% of L-α-phosphatidylcholine from soybean dissolved, by sonication, in n-dodecane. Immediately after this application, 150 μL of Tris buffer containing 5% DMSO was added to the receiving well. The receiving well was mounted on the donor plate, keeping the underside of the membrane in contact with the donor solution. The assembled donor–acceptor plates were incubated under constant stirring (3 g) at 25 °C for approximately 16 h. Subsequently, the quantity of each compound presented at the receptor solution (150 μL) was determined by UV/VIS spectrophotometrically. The experiments were performed in hexaplicates (n = 6) and the apparent permeability coefficient (Papp) calculated in centimeters per second (cm/s), together with the standard deviation (SD).

[2] = system: NCTC cells-clone L929; assay: Cytotoxicity against mammalian cells (MTT); type: cell-based, Murine; settings: 48 h
Experimental: Rhesus monkey kidney cells (LLC-MK2-ATCC CCL 7) were used for the maintenance of trypomastigotes of T. cruzi (Y strain) using RPMI-1640 medium supplemented with 2% fetal bovine serum (FBS). The cells and parasites were kept at 37 °C in a humidified atmosphere containing 5% CO2. Peritoneal macrophages, used in the experiments of anti-amastigote assay, were obtained by washing the peritoneal cavity of BALB/c mice, with RPMI-1640 medium supplemented with 10% FBS and kept at 37 °C in a 5% CO2 humidified incubator. Murine conjunctive cells (NCTC clone 929, ATCC) and LLC-MK2 were kept in RPMI-1640 supplemented with 10% FBS at the same conditions described above.
NCTC cells-clone L929 (6 × 10^4 cells/well) were seeded and incubated with tested compounds (200–1.56 µM) for 48 h at 37 °C in a 5% CO2 humidified incubator. Cytotoxic concentration (CC50) was determined by MTT assay. Optical density was determined in FilterMax F5 (Molecular Devices) at 570 nm. Selectivity Index (SI) was determined using the following ratio: CC50 against NCTC cells/IC50 against parasites.
IC50 and CC50 values were calculated using a sigmoid dose-response curves in Graph–Pad Prism 5.0 software (GraphPad Software - San Diego, CA, USA). For the mechanism of action studies one-way ANOVA (Turkey’s Multiple Comparison test) was used for significance (p < 0.05). […]

[3] = PAMPA-BBB model; type: in vitro ADME
Experimental: The methodology herein applied was similar to that described in the previous section, however with the purpose of assessing the permeability of the compounds through the blood brain barrier (BBB). Thus, stock solutions (10 mM) of each test compound were prepared in DMSO and diluted with phosphate buffered saline (PBS) at pH 7.4. The final concentration of donor solutions was 300 μM and DMSO of 5%. Artificial membrane lipid solutions were prepared daily by dissolving, in n-dodecane, the porcine brain lipid extracted as described[40] at the final concentration of 2% (m/v). PAMPA procedure was similar to that described in the previous section although, in PAMPA-BBB, the donor and acceptor solutions were prepared using phosphate buffer saline (PBS) at pH 7.4 and the Papp was obtained through the equation previously reported.

isoeugenol [compound 4]
Papp (PAMPA, bound stated in text) ([1]; PAMPA intestinal model): < 10 ×10⁻⁶ cm/s | Papp GIT ([1]; PAMPA intestinal model, 300 µM donor, Tris buffer, 25 °C, 16 h): 6.17 10^−6 cm/s | permeability on GIT model (in words) ([1]; PAMPA-GIT): adequate permeability on GIT model | plasma protein binding percentage ([1]; estimated from PAMPA-GIT Papp (threshold 1 × 10^−5 cm/s)): lower than 90% | CC50 [2]: > 200 µM | permeability in BBB model (in words) ([3]; PAMPA-BBB): did not seem to cross the BBB | Papp BBB ([3]; PAMPA-BBB model, 300 µM donor, PBS pH 7.4): 1.60 10^−6 cm/s
